Patent US4766140A, “Method of inhibiting aromatase” (Eli Lilly and Company, priority 1984, dated 1988)

Target: T1, aromatase (Rattus norvegicus, UniProt P22443)
T1 construct: ovarian microsomes are obtained from rats treated with pregnant mares serum gonadotropin; from tissue; host or cells: ovarian microsomes from rats treated with pregnant mares serum gonadotropin
T1 sequence (P22443 1-508): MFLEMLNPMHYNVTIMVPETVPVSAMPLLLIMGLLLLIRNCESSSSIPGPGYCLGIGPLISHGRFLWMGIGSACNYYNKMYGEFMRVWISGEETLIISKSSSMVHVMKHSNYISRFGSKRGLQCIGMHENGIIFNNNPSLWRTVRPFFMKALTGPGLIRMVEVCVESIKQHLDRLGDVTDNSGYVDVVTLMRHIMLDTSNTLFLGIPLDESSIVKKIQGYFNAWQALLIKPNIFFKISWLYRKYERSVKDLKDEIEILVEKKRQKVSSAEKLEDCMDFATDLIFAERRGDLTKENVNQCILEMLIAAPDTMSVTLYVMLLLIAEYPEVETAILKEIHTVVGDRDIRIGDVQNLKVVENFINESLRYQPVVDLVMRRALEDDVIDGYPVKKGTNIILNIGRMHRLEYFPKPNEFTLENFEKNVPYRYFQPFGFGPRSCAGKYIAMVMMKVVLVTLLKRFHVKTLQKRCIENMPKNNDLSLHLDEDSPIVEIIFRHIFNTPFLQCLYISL
Assay: Aromatase inhibition in the rat ovarian microsome assay
Type: biochemical
Settings: rat ovarian microsomes; substrate (androstenedione) concentration 0.1 μM

Compound | EC50 [nM]
OC(CCn1ccnc1)(c1ccccc1)c1ccccc1 [1,1-diphenyl-3-(1-imidazolyl)-1-propanol] | 84
Clc1ccc(CCn2ccnc2)cc1Cl [1-(3,4-dichlorophenylethyl)-1H-imidazole, oxalic acid salt] | 84

Counter-ions that a name gives are not always drawn.
